Earlier results as cited in patent US11446302B2, “Compounds with anti-tumor activity against cancer cells bearing EGFR or HER2 exon 20 mutations” (Board of Regents, The University of Texas System, priority 2016, dated 2022).

Test system: NSCLC with classical sensitizing mutations (L858R and exon 19 deletions)
Settings: Maemondo et al., 2010; cited from earlier work

COc1cc2ncnc(Nc3ccc(F)c(Cl)c3)c2cc1OCCCN1CCOCC1 [Gefitinib]
patients experiencing objective responses (OR): approximately 70%
